Experimental data reported in patent US20240042045A1, “NANOPARTICLES CONTAINING MULTIPLE CLEAVABLE PRODUGS FOR CANCER THERAPY” (The University of Chicago, priority 2020, published 2024).

Tested on: CT26 and MC38 cells
Conditions: concentrations up to 300 μM

Substance: 20-O-tert-butyl-SN38 [SN38-Bu]
- cytotoxicity: no cytotoxicity
